Assay results reported in ChEMBL document CHEMBL5579837, “Dual 5-HT6/SERT ligands for mitigating neuropsychiatric symptoms of dementia exerting neuroprotection against amyloid-β toxicity, memory preservation, and antidepressant-like properties” (Eur J Med Chem, 2024).

Protein sequences, listed by entry. Tags and fused reporters are not part of them. Lines headed by an entry give the natural chain unless they say otherwise; changes in a name come on top.
UniProt P15823, whole entry, looked up: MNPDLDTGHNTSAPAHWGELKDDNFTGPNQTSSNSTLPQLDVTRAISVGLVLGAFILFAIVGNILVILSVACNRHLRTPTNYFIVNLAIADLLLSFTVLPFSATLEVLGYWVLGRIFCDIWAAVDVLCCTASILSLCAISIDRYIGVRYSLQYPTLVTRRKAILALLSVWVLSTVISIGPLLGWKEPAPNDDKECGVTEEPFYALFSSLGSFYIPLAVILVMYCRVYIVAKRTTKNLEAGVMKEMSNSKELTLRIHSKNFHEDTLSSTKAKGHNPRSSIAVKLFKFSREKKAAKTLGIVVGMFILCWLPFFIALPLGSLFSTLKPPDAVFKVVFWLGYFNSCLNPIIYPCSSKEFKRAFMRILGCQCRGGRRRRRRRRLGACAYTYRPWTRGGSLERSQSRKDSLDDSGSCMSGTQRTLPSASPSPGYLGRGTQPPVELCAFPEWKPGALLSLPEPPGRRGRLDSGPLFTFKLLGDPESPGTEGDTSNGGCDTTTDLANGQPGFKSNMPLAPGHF
UniProt P23944, whole entry, looked up: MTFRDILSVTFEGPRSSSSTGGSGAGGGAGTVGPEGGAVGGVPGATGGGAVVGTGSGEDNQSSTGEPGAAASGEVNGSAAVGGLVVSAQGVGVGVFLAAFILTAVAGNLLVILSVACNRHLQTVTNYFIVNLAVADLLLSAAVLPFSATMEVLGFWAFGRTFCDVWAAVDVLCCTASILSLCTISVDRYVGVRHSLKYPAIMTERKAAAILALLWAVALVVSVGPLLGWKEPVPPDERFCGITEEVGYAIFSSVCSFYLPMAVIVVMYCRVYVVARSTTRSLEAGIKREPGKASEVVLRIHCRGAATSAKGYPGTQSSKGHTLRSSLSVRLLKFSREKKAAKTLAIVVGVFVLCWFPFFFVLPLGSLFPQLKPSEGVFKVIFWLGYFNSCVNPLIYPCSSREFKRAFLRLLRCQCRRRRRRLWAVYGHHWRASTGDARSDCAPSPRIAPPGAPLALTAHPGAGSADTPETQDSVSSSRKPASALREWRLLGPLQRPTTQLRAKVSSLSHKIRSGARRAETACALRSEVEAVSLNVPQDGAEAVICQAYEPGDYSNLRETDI
UniProt P43140: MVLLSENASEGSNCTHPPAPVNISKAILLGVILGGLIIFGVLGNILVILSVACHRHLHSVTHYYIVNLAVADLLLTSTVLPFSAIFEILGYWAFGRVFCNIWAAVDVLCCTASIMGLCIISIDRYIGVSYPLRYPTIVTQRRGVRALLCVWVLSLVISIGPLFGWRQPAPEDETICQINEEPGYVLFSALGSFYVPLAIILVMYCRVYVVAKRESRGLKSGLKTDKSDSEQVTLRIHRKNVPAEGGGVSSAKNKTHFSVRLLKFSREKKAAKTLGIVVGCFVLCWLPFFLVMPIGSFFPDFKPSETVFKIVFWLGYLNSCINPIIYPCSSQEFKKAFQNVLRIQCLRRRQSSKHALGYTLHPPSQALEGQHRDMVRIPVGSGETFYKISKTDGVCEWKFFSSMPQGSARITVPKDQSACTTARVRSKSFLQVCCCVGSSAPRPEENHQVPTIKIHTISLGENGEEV

Each molecule was assayed against Adrenergic receptor alpha-1 (Rattus norvegicus) (UniProt P15823+P23944+P43140) (assay: Binding affinity to rat cortex alpha-1 adrenergic receptor assessed as reduction in [3H]-Prazosin binding to ADRA1 at 1 uM incubated for 30 mins by microbeta2 scintillation counter analysis relative to control).
Assay type: tissue-based
Set-up: scale not given: the % may be the effect or the level left

Question: For `O=c1[nH]c2c(N3CCN(CCc4c[nH]c5ccc(F)cc45)CC3)cccc2n1Cc1ccccc1`, which Activity is on record?
Answer: 0%

Question: For `O=c1[nH]c2c(N3CCN(CCCc4c[nH]c5ccc(Cl)cc45)CC3)cccc2n1Cc1ccccc1`, which Activity is on record?
Answer: 2%

Question: For `N#Cc1ccc2[nH]cc(CCCN3CCN(c4cccc5c4[nH]c(=O)n5Cc4ccccc4)CC3)c2c1`, which Activity is on record?
Answer: 8%

Question: Which Activity does the source give for `O=S(=O)(c1ccccc1)n1ccc2c(N3CCN(CCCc4c[nH]c5ccc(Cl)cc45)CC3)cccc21` here?
Answer: 83%

Question: For `O=S(=O)(c1ccccc1)c1c[nH]c2c(C3CCN(CCCc4c[nH]c5ccc(F)cc45)CC3)cccc12`, which Activity is on record?
Answer: 29%

Question: Which Activity does the source give for `O=c1[nH]c2c(N3CCN(CCCc4c[nH]c5ccc(F)cc45)CC3)cccc2n1Cc1ccccc1` here?
Answer: 3%

Question: `N#Cc1ccc2[nH]cc(CCN3CCN(c4cccc5c4ccn5S(=O)(=O)c4ccccc4)CC3)c2c1` was tested. Which Activity did it give?
Answer: 81%

Question: Which Activity does the source give for `N#Cc1ccc2[nH]cc(CCN3CCC(c4cccc5c(S(=O)(=O)c6ccccc6)c[nH]c45)CC3)c2c1` here?
Answer: 29%

Question: Which Activity does the source give for `O=S(=O)(c1ccccc1)n1ccc2c(N3CCN(CCc4c[nH]c5ccc(F)cc45)CC3)cccc21` here?
Answer: 87%

Question: How did the Activity turn out when `O=S(=O)(c1ccccc1)c1c[nH]c2c(C3CCN(CCCc4c[nH]c5ccc(Cl)cc45)CC3)cccc12` was run?
Answer: 22%

Question: For `N#Cc1ccc2[nH]cc(CCCN3CCN(c4cccc5c4ccn5S(=O)(=O)c4ccccc4)CC3)c2c1`, which Activity is on record?
Answer: 0%

Question: For `Cc1c(OCc2ccccc2)cccc1N1CCN(CCc2c[nH]c3ccc(Cl)cc23)CC1`, which Activity is on record?
Answer: 0%

Question: For `O=S(=O)(c1ccccc1)c1c[nH]c2c(C3CCN(CCc4c[nH]c5ccc(Cl)cc45)CC3)cccc12`, which Activity is on record?
Answer: 16%

Question: For `N#Cc1ccc2[nH]cc(CCCN3CCC(c4cccc5c(S(=O)(=O)c6ccccc6)c[nH]c45)CC3)c2c1`, which Activity is on record?
Answer: 6%

Question: Which Activity does the source give for `Cc1c(OCc2ccccc2)cccc1N1CCN(CCc2c[nH]c3ccc(F)cc23)CC1` here?
Answer: 7%

Question: `N#Cc1ccc2[nH]cc(CCN3CCN(c4cccc5c4[nH]c(=O)n5Cc4ccccc4)CC3)c2c1` was tested. Which Activity did it give?
Answer: 4%

Question: How did the Activity turn out when `O=c1[nH]c2c(N3CCN(CCc4c[nH]c5ccc(Cl)cc45)CC3)cccc2n1Cc1ccccc1` was run?
Answer: 13%

Question: Which Activity does the source give for `Cc1c(OCc2ccccc2)cccc1N1CCN(CCCc2c[nH]c3ccc(Cl)cc23)CC1` here?
Answer: 0%

Question: For `Cc1c(OCc2ccccc2)cccc1N1CCN(CCc2c[nH]c3ccc(C#N)cc23)CC1`, which Activity is on record?
Answer: 15%

Question: Which Activity does the source give for `N#Cc1ccc2[nH]cc(CCCCN3CCC(c4cccc5c(S(=O)(=O)c6ccccc6)c[nH]c45)CC3)c2c1` here?
Answer: 0%

Question: `N#Cc1ccc2[nH]cc(CCCCN3CCN(c4cccc5c4[nH]c(=O)n5Cc4ccccc4)CC3)c2c1` was tested. Which Activity did it give?
Answer: 5%

Question: Which Activity does the source give for `O=S(=O)(c1ccccc1)c1c[nH]c2c(C3CCN(CCc4c[nH]c5ccc(F)cc45)CC3)cccc12` here?
Answer: 2%

Question: Which Activity does the source give for `Cc1c(OCc2ccccc2)cccc1N1CCN(CCCCc2c[nH]c3ccc(C#N)cc23)CC1` here?
Answer: 10%

Question: Which Activity does the source give for `Cc1c(OCc2ccccc2)cccc1N1CCN(CCCc2c[nH]c3ccc(F)cc23)CC1` here?
Answer: 0%

Question: Which Activity does the source give for `Cc1c(OCc2ccccc2)cccc1N1CCN(CCCc2c[nH]c3ccc(C#N)cc23)CC1` here?
Answer: 10%

Question: For `O=S(=O)(c1ccccc1)n1ccc2c(N3CCN(CCc4c[nH]c5ccc(Cl)cc45)CC3)cccc21`, which Activity is on record?
Answer: 7%

Question: How did the Activity turn out when `O=S(=O)(c1ccccc1)n1ccc2c(N3CCN(CCCc4c[nH]c5ccc(F)cc45)CC3)cccc21` was run?
Answer: 80%

Question: How did the Activity turn out when `N#Cc1ccc2[nH]cc(CCCCN3CCN(c4cccc5c4ccn5S(=O)(=O)c4ccccc4)CC3)c2c1` was run?
Answer: 91%
